Values quoted from earlier work in publication PMC9303367, “Synthesis of Aminoethyl‐Substituted Piperidine Derivatives as σ1 Receptor Ligands with Antiproliferative Properties” (Chemmedchem, 2022).

Sequences of proteins named here, by UniProt entry; tags and fusion partners are left off.
UniProt Q60492, whole entry: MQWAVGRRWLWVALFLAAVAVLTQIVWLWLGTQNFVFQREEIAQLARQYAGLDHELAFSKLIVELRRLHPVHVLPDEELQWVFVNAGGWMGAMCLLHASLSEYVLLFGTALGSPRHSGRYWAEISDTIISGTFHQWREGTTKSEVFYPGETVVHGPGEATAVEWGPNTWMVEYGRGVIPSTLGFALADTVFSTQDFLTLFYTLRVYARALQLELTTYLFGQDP

Target: σ1 receptor (Cavia porcellus, UniProt Q60492)
Conditions: read-out: σ1 affinity K i±SEM; lead compounds 1–3 (enantiomers); cited from earlier work

## c1ccc(CNCC[C@@H]2CCO[C@H](c3ccccc3)O2)cc1
  Ki: 6 nM
